Laboratory results as given in patent US9822157B2 (priority 2013, dated 2017).

Experiments:
[1] = target: T1, human ferroportin (Homo sapiens, UniProt Q9NP59); format: cell-based
T1 sequence (Q9NP59 1-571): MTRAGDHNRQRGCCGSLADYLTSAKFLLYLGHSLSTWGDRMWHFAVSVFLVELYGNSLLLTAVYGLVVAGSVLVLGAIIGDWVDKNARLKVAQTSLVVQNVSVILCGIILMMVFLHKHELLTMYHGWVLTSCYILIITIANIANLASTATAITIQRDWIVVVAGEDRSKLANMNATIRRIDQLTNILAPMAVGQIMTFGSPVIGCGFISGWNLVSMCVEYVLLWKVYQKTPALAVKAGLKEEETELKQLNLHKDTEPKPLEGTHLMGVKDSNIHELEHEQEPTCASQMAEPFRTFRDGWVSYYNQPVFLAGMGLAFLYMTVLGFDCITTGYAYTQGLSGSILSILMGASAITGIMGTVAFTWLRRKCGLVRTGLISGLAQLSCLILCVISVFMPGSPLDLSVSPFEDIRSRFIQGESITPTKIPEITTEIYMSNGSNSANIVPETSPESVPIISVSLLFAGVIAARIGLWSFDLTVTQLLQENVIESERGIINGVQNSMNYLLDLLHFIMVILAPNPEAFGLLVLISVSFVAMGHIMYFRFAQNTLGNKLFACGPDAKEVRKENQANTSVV
Excerpt: The cDNA encoding the human ferroportin (SLC40A1) was cloned from a cDNA clone from Origene (NM_014585). The DNA encoding the ferroportin was amplified by PCR using primers also encoding terminal restriction sites for subcloning, but without the termination codon. The ferroportin receptor was subcloned into a mammalian GFP expression vector containing a neomycin (G418) resistance marker in such that the reading frame of the ferroportin was fused in frame with the GFP protein. The fidelity of the DNA encoding the protein was confirmed by DNA sequencing. HEK293 cells were used for transfection of the ferroportin-GFP receptor expression plasmid. The cells were grown according to standard protocol in growth medium and transfected with the plasmids using Lipofectamine (manufacturer's protocol, Invitrogen). […] The cells were propagated and frozen in aliquots.
Compound was added to desired final concentration for at least 18 hours in the incubator. […] Compound was added to desired final concentration for at least 18 hours but no more than 24 hours in the incubator.
A retro inverse peptide is a peptide with a reversed sequence in all D amino acids. […] The EC50 of these reference compounds for ferroportin degradation was determined according to the activity assay described above.

[2] = Stability in human serum (LC-MS); format: in vitro ADME; details: for t½: human serum, 10 μM peptide, 37 degrees C, up to 24 hours; for Stability Human: hours stable in plasma
Description: Serum stability experiments were undertaken to complement the in vivo results and assist in the design of potent, stable Ferroportin agonists. In order to predict the stability in humans, ex vivo stability studies were initially performed in human serum.
Key peptides (10 μM) were incubated with pre-warmed human serum (Sigma) at 37 degrees C. Samples were taken at various time points up to 24 hours. The samples were separated from serum proteins and analysed for the presence of the peptide of interest using LC-MS. The amount of intact peptide in each sample was calculated using the analyte peak area in relation to the zero time point.
(§1) The peptides were also tested for other pharmacokinetic/pharmacodynamic (PK/PD) parameters using methods commonly know by the skilled artisan. These parameters included determinations regarding stability (hours stable in plasma from the indicated human or rat subject), half-life in mice, and in vitro activity (EC50), tested as described in Example 2.

[3] = Stability in rat plasma; format: in vitro ADME; details: hours stable in plasma
Description: as §1

[4] = Mouse PK half-life; format: in vivo; details: half-life in mice
Description: as §1

[5] = Hepcidin analog peptides, read-out: Potency EC50
[6] = in vitro activity (EC50) tested as in Example 2, read-out: In Vivo Activity EC50
[7] = read-out: Log dilutions EC50 (nM) (n > 3) (converted), monomers and dimers through a glycol linker on εN of lysine

Row | Substance | EC50 [1, 5] [nM] | EC50 ([1]; read-out: EC50 (nM) (n = 3), in vitro activity as in Example 2, peptide monomers and dimers dimerized through a single disulphide linkage, n = 3) | EC50 ([1]; read-out: EC50 (nM) (n > 3), alanine scan of Compound 1) | EC50 ([1]; read-out: EC50 (nM) (n > 3), cysteine replacement scan of Mini-Hepcidin derivatives) | t½ [2] [min] | EC50 ([1]; reference compounds, ferroportin degradation, read-out: EC50) [nM] | Stability Human [2] [h] | Stability Rat [3] | EC50 [1, 6] [nM] | Mouse PK T1/2 [4] [min] | EC50 [1, 7] [nM]
1 | Hy-DTHFPCIIF-NH2 [Compound 1] | 133 | 133 | 133 | 133 | 10.8 |  |  |  |  |  | 
2 | Hy-DTHFPIC(1)IFC(2)C(3)GC(2)C(4)HRSKC(3)GMC(4)C(1)KT-OH [Hepcidin, reference compound] |  |  |  |  | 166 | 169 | 2.76 | Var |  |  | 
3 | Hy-DTHFPICIF-NH2 [Mini-Hepcidin 1-9, reference compound] |  |  |  |  | 6 |  |  |  |  |  | 
4 | Hy-[bhAsp]-THFPICIFGPRSKGWVC-NH2 [Compound 46] |  |  |  |  | 126 |  |  |  |  |  | 
5 | Isovaleric acid-DTHFPCIEFGPRSKGWVCK-NH2 [Compound 15] | 79 |  |  |  |  |  |  | 0.15 h | 79 |  | 
6 | Isovaleric acid-DTHFPCIIFEPRSKGWVCK-NH2 [Compound 105] | 10 |  |  |  |  |  | 2.22 | 0.68 h | 10 | 36.9 | 
7 | Isovaleric acid-DTHFPCIIFGPRSRGWVCK-NH2 [Compound 3] | 15 |  |  |  | 30.6 |  | 0.43 | 0.08 h | 15 |  | 15
8 | Isovaleric acid-DTHFPCIKF-K(PEG8)-PRSKGWVCK-NH2 [Compound 150] | 7 |  |  |  |  |  | 1.35 | 0.42 h | 7 | 31.6 | 
9 | Isovaleric acid-DTHFPCIKFEPRSKGCK-NH2 [Compound 184] |  |  |  |  |  |  | 8.16 | 2.12 h | 16 | 36.9 | 
10 | Isovaleric acid-DTHFPCIKFGPRSKGWVC-K(PEG8)-NH2 [Compound 153] | 18 |  |  |  |  |  | 3.36 | 0.41 h | 18 |  | 
11 | Isovaleric acid-DTHFPCIKFGPRSKGWVCK-NH2 [Compound 9] | 32 |  |  |  |  |  | 0.57 | 0.14 h | 32 | 22.5 | 
12 | Isovaleric acid-DTHFPCIQFGPRSKGWVCK-NH2 [Compound 10] | 35 |  |  |  |  |  |  | 0.12 h | 35 |  | 
13 | Isovaleric acid-DTHFPICIFGPRS-K(PEG8)-GWVC-NH2 [Compound 176] | 6 |  |  |  |  |  | 15 | 1.62 h | 6 |  | 
14 | Isovaleric acid-DTHFPICIFGPRSKGWVC-NH2 [Compound 2] |  |  |  |  | 119 |  | 1.99 | 0.15 h | 5 | 17.4 | 4.1
15 | [Ida]-TH-[Dpa]-[bh-Pro]-CIIFGPRSRGWVCK-NH2 [Compound 8] | 29 |  |  |  | 30.6 |  |  |  |  |  | 

Where two headings read alike, the source gives them in different places.
